# Yeast mating assay B: variants of the scFv Ab-14

All variants were tested on one target, the spike HR2 peptide PDVDLGDISGINAS (SARS-CoV-2).

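Phage display of a naive human antibody library on the peptide gave the parent. The variants were designed computationally from a first round of random CDR variants and then made and measured. Their group label is 14L_En_Gen (En: ensemble of fine-tuned language models; Gen: genetic algorithm). The assay is AlphaSeq: two haploid yeast populations carry antibody and antigen on their surface. Pairs that bind mate more often; barcode pairs of the diploids are counted by sequencing. Read counts were normalised to the haploid input and turned into Kd by a linear fit to BCL2-family pairs of known affinity, for each replicate. Each pool was mated in six replicate cultures.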

Each scFv is VH, a (GGGGS)3 linker, VL, as in the parent Ab-14, and differs from it in the CDRs of the light chain only.
VH: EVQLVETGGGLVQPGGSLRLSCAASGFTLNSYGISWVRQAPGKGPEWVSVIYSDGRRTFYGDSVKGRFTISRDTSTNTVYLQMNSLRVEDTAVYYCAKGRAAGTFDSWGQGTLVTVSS
VL: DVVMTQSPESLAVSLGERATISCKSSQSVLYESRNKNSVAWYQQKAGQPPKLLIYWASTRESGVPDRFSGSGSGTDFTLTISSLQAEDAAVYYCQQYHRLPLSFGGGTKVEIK

Each variant is given by its three light chain CDRs, as the data file delimits them; those of the parent are KSSQSVLYESRNKNSVA, WASTRES, QQYHRLPLS.
Affinities are written as log10 Kd with Kd in nM; a lower number is a better binder.
Replicates are averaged; those with no signal do not enter the mean.
Where no diploid with the target was found in that replicate, the entry reads "n.d.": below detection, most likely a poor binder, though not proof of it.
A sequence measured in both rounds can read differently, since the two assays cover different ranges.
As a blank, each scFv also met three strains without target: over all light chain designs, 4% of these pairings were detected, typically at 2.64 and seldom below 1.59. The control count says in how many pairings with the empty strains this scFv gave a signal, with their mean in brackets.
The authors averaged sequences with at least three values out of six and counted those with two or fewer as poor binders.

CDR-L1 | CDR-L2 | CDR-L3 | log10 Kd, replicates | log10 Kd (nM), mean | signal with controls
MMSQVTGMELRQQNNVA | QTSTRES | QQYDRLPLI | 0.94 / 0.80 / 0.68 / 0.48 / 0.86 / 0.90 | 0.78 | 2 of 18 (2.82)
KLSMTHEMEHVNRNSVA | ELVTRMK | QQYNRLPLS | 0.32 / 0.27 / 0.22 / -0.54 / 0.16 / 0.15 | 0.10 | 1 of 18 (1.79)
TISQMTSLFSQSINNVA | EVSMRES | QQYDRLPLS | 1.46 / 1.44 / 1.11 / 1.54 / 1.15 / 1.63 | 1.39 | 1 of 18 (2.88)
KIGMTLNQLMEKKNNVA | DLVEREN | QQYFRLPLS | 0.53 / -0.25 / -0.25 / -0.13 / -0.19 / -0.08 | -0.06 | 0 of 18
KLSMTHGMESINRNSVA | ELVTRMS | QQYNRLPLS | 0.59 / 0.75 / 0.47 / 0.67 / 0.48 / 1.03 | 0.67 | 0 of 18
MISQMYNMGQFAINSVA | QASERNE | QQYDRLPLM | n.d. / n.d. / 2.13 / 1.44 / 1.61 / 1.44 | 1.65 | 0 of 18
KIGDTLNQLMTKRNNVA | DLVTREN | QQYFRLPLS | 0.05 / 0.01 / -0.25 / -0.24 / -0.06 / -0.09 | -0.10 | 0 of 18
KLVQFMNRGTHAKSNIA | DAQNRTD | QQYARLPLA | -0.05 / -0.14 / -0.16 / -0.54 / 0.17 / 0.18 | -0.09 | 0 of 18
TISQVMNTLERHGNNVA | DLAERED | QQYFRLPLS | 0.70 / 0.39 / 0.39 / 0.77 / 0.37 / 0.47 | 0.52 | 0 of 18
MISQLFNMGQFAINSVA | QASQRNA | QQYDRLPLM | 2.36 / n.d. / 1.03 / 1.10 / 2.71 / 1.58 | 1.75 | 0 of 18
VLGAEYGNMVMKKNSIA | DNSTRGE | QQYDRLPLS | n.d. / 1.60 / 0.94 / 1.29 / 1.37 / 1.33 | 1.31 | 1 of 18 (2.37)
TISQMTSLFSQSINNVA | EVSTREK | QQYDRLPLI | 0.48 / 1.23 / 0.88 / 0.47 / 0.12 / 1.09 | 0.71 | 0 of 18
KIGMTLNQLQEKKNNVA | DLVMREN | QQYFRLPLS | 0.57 / 1.07 / 0.89 / -0.01 / 0.78 / 0.43 | 0.62 | 0 of 18
MMSQVTGLGTRHRNNVA | QTETREP | QQYDRLPLI | 1.23 / 0.90 / 0.93 / 0.85 / 0.67 / 1.26 | 0.97 | 1 of 18 (1.81)
MMSQVTGMGQRHRNNVA | QTSTREP | QQYDRLPLI | 1.04 / 1.41 / 1.13 / 0.65 / 1.12 / 1.49 | 1.14 | 1 of 18 (2.42)
KFSQMVNTLSVSKSAVA | EMSTRPE | QQYNRLPLS | 1.02 / 0.55 / 0.45 / 0.22 / 0.64 / 0.38 | 0.54 | 0 of 18
MISQILNMGQFAINSVA | QASLRCN | QQYDRLPLA | n.d. / n.d. / n.d. / n.d. / n.d. / n.d. | n.d. | 0 of 18
MVSQLMVWGLHAKNSIA | EAQTRLN | QQYDRLPLF | n.d. / n.d. / 1.73 / 1.88 / n.d. / n.d. | 1.80 | 0 of 18
HMSMLTMMGMRHRNSVA | QMTTREN | QQYDRLPLA | 1.12 / n.d. / 1.06 / 1.23 / 1.96 / 1.29 | 1.33 | 0 of 18
MISQLYNMGQFAINSVA | QAVTRNE | QQYDRLPLM | n.d. / n.d. / 1.11 / n.d. / n.d. / 1.76 | 1.44 | 0 of 18
MIYGAHMELGRAANSIA | DNVTRYN | QQYERLPLS | 2.51 / 1.33 / 3.71 / 1.67 / 1.98 / 1.01 | 2.03 | 1 of 18 (3.05)
HVGHATMLEETVRNSVA | NNSTRES | QQYDRLPLS | 1.88 / 2.70 / 1.99 / 2.05 / 2.02 / 3.05 | 2.28 | 1 of 18 (1.81)
MLGDVAFGLQRKQNSVA | DNSTREN | QQYDRLPLS | 1.70 / 1.58 / 1.94 / 1.32 / 2.20 / 1.57 | 1.72 | 0 of 18
HMSMLTLGGVRQRNSVA | QMTTREN | QQYDHLPLS | 0.96 / 0.97 / 0.84 / 1.01 / 1.29 / 1.03 | 1.02 | 0 of 18
KLSMITGHMHMSKNNVA | EMVTRAN | QQYDRLPLA | 0.31 / -0.09 / 0.25 / 0.42 / 0.28 / 0.38 | 0.26 | 3 of 18 (2.30)
QLYEMLYELSGKTHSVA | DNSTRGD | QQYFRLPLD | 1.63 / 0.98 / 0.60 / 0.77 / 1.05 / 1.64 | 1.11 | 1 of 18 (1.87)
MLSEVLHMLGVQKNSIA | DLVLRAN | QQYHRLPLG | n.d. / n.d. / n.d. / n.d. / n.d. / n.d. | n.d. | 0 of 18
KIGMTLNMMMHKKNNVA | DLVERED | QQYHRLPLS | n.d. / n.d. / n.d. / n.d. / n.d. / n.d. | n.d. | 0 of 18
KISQMIRVGSTHSNSIA | EEATRSK | QQYHRLPLA | 1.44 / 1.22 / 0.21 / n.d. / n.d. / 1.48 | 1.09 | 0 of 18
KVSEFMRGLMQRKDSIA | DNVTRNS | QQYDRLPLS | n.d. / 2.04 / n.d. / 3.01 / n.d. / n.d. | 2.52 | 0 of 18
IVSQLMLWGLHYKNSIA | EAQTRLN | QQYDRLPLF | n.d. / n.d. / n.d. / n.d. / n.d. / n.d. | n.d. | 0 of 18
TIYQTLSIGSRNRSNVA | EVSERLN | QQYDRLPLI | 1.28 / 1.89 / 2.28 / 1.62 / 3.35 / 3.42 | 2.31 | 0 of 18
TISQVMNTLTRNTNNVA | DLTERED | QQYFRLPLS | n.d. / 1.37 / 1.39 / n.d. / 2.35 / n.d. | 1.70 | 0 of 18
KLSMITGHLSTAKNNVA | EMVTREN | QQYNRLPLS | 1.36 / 2.02 / 0.96 / 1.01 / 1.14 / 1.19 | 1.28 | 0 of 18
TISQVMNTMTRHGNNVA | DLEERED | QQYFRLPLS | 0.81 / 1.05 / 0.85 / 1.38 / 0.92 / 1.12 | 1.02 | 2 of 18 (2.12)
KISQMVRVGQTHGNSIA | EEATRAK | QQYHRLPLA | 1.01 / 0.91 / 0.93 / 0.92 / 1.02 / 0.85 | 0.94 | 0 of 18
KISMLHNQTFNQSNNVA | EMATREK | QQYNRLPLS | 1.99 / 1.74 / 1.86 / 1.57 / 1.36 / 1.78 | 1.72 | 2 of 18 (3.21)
TLYGLSMSMSKNKNNVA | EMSTREK | QQYDRLPLI | 1.03 / 0.47 / 0.62 / 0.66 / 0.72 / 0.94 | 0.74 | 1 of 18 (3.55)
KVSEFMRGLMQKKDSIA | DNVTRNN | QQYDRLPLS | n.d. / n.d. / n.d. / n.d. / n.d. / n.d. | n.d. | 0 of 18
MISNVMNTLTRIGNNVA | DLTEREK | QQYFRLPLS | 0.22 / 0.93 / 0.66 / 1.57 / 0.56 / 0.48 | 0.74 | 1 of 18 (1.89)
KVSGFMRGLMMRKDSIA | DNETRSQ | QQYDRLPLS | 1.66 / 2.03 / 1.72 / 2.54 / 1.53 / 1.76 | 1.87 | 3 of 18 (3.08)
SLGLVTMLEYAGRNSVA | NNSTREQ | QQYDRLPLS | n.d. / n.d. / 2.05 / n.d. / n.d. / n.d. | 2.05 | 0 of 18
SLYEMAHELSGKKNSVA | DNSTRGE | QQYFRLPLE | 0.02 / -0.22 / -0.05 / -0.40 / -0.22 / -0.15 | -0.17 | 1 of 18 (2.34)
MISQLWNMGQFAINSVA | QASERSE | QQYDRLPLQ | 1.83 / 1.77 / 1.87 / 2.48 / 1.69 / 1.81 | 1.91 | 1 of 18 (3.04)

The opening 6 entries, copied out:

CDR-L1 | CDR-L2 | CDR-L3 | log10 Kd, replicates | log10 Kd (nM), mean | signal with controls
MMSQVTGMELRQQNNVA | QTSTRES | QQYDRLPLI | 0.94 / 0.80 / 0.68 / 0.48 / 0.86 / 0.90 | 0.78 | 2 of 18 (2.82)
KLSMTHEMEHVNRNSVA | ELVTRMK | QQYNRLPLS | 0.32 / 0.27 / 0.22 / -0.54 / 0.16 / 0.15 | 0.10 | 1 of 18 (1.79)
TISQMTSLFSQSINNVA | EVSMRES | QQYDRLPLS | 1.46 / 1.44 / 1.11 / 1.54 / 1.15 / 1.63 | 1.39 | 1 of 18 (2.88)
KIGMTLNQLMEKKNNVA | DLVEREN | QQYFRLPLS | 0.53 / -0.25 / -0.25 / -0.13 / -0.19 / -0.08 | -0.06 | 0 of 18
KLSMTHGMESINRNSVA | ELVTRMS | QQYNRLPLS | 0.59 / 0.75 / 0.47 / 0.67 / 0.48 / 1.03 | 0.67 | 0 of 18
MISQMYNMGQFAINSVA | QASERNE | QQYDRLPLM | n.d. / n.d. / 2.13 / 1.44 / 1.61 / 1.44 | 1.65 | 0 of 18

From the AlphaSeq antibody data of Li et al. 2023 (doi:10.1038/s41467-023-39022-2), copy in the FLAb collection.